System: pigmented reconstructed skins
Details: solar irradiation 561 KJ/m^2 twice per week for two weeks; 8 μl cosmetic formulation with active at 3%, 10 days

## Hesperitine Laurate [Flavagrum ®]
  MTT cellular viability, percentage with respect to the non-irradiated control: 88%
